## Apparent affinities of Ab-14 variants for a coronavirus HR2 peptide

All variants were tested on one target, the spike HR2 peptide PDVDLGDISGINAS (SARS-CoV-2).

Each scFv is VH, three GGGGS repeats, VL, as in the parent Ab-14, and differs from it in the CDRs of the heavy chain only.
VH: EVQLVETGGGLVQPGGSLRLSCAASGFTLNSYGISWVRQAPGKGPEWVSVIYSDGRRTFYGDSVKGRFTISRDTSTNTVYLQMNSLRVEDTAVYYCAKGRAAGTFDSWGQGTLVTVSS
VL: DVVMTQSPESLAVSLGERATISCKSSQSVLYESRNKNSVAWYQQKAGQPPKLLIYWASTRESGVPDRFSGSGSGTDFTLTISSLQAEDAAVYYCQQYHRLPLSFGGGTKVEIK

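The starting antibody came from a phage panning campaign against this peptide. Library AAYL49 holds single substitutions and randomly drawn double and triple substitutions in the CDRs. The assay is AlphaSeq: two haploid yeast populations carry antibody and antigen on their surface. Mating (16 h, 30 °C) was followed by selection of diploids and sequencing of their barcodes. The ratio of observed to expected reads was calibrated, replicate by replicate, on BCL2-family standards whose Kd was known from biolayer interferometry. There are three technical replicates.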

Each variant is given by its three heavy chain CDRs, as the data file delimits them; those of the parent are GFTLNSYGIS, VIYSDGRRTFYGDSVK, GRAAGTFDS.
This list gathers variants with a substitution at S35 (VH, numbered from residue 1).
Kd is apparent (estimated from mating counts) and averaged on the log scale over replicates with a signal. Smaller is tighter.
A pair that was not seen in any replicate is written "no signal"; this usually means weak binding, but a binder can also be missed.

CDR-H1,CDR-H2,CDR-H3,Kd,detected
GFTLLSYGIC,VIYSDGRRTFYGDSVK,GRAAGVFDS,440 µM,1 of 3
GFTLNSYGIM,VIYSDGHRTFYGPSVK,GRAAGTFDS,no signal,0 of 3
GFTLNSYGIM,VIYSDGRRTFYGDCLK,GRAAGTFDS,15 µM,3 of 3
GFTLNSYGII,VIYSDGFRTFYGDSVK,GRAAGTFSS,no signal,0 of 3
GFTLNSYGIQ,VIYSDGRRTFYGDSYK,GRAAGTFDW,35 µM,1 of 3
GFTINSYGIP,VIYSDGRRTFYGDSVK,GRAAGTFDG,no signal,0 of 3
GFTLNSYGIW,VIYKDGRRTFYGDSVK,GRAAGTFYS,no signal,0 of 3
GFTLNSYGIL,VIYSDGRRTFYDDSVK,GRAKGTFDS,no signal,0 of 3
GFTLNSYGIP,VIYSDGRRPFYGDSVK,GRAAGTFDS,no signal,0 of 3
GFTLNSYGIW,VGYSDGRRTFYGDSVK,GRAAGTFDS,no signal,0 of 3
GFTPNSYGIY,VIYSDGRRTFYGDSVK,GSAAGTFDS,1.2 µM,1 of 3
GPTLNSYGIF,VIYSDGRRTFPGDSVK,GRAAGTFDS,no signal,0 of 3
GFTLNSYGIE,VIYSDGRRTHYGNSVK,GRAAGTFDS,18 µM,2 of 3
GFTLNSYGIA,VGCSDGRRTFYGDSVK,GRAAGTFDS,1.0 µM,1 of 3
GFTLWSYGIV,VIYSDGRRTFYGDSVK,GRAAGTFDS,no signal,0 of 3
GFTLNSYGIR,VIQSDGRRTFYGDSVK,GRMAGTFDS,no signal,0 of 3
GFTLNSYGIW,VIYSDGRRTFYGDSVK,GRAAGTEDS,no signal,0 of 3
GFTLNTYWIV,VIYSDGRRTFYGDSVK,GRAAGTFDS,no signal,0 of 3
GFTLNAYGWQ,VIYSDGRRTFYGDSVK,GRAAGTFDS,no signal,0 of 3
GFTLNSYGIT,VIYLDGRRTFRGDSVK,GRAAGTFDS,no signal,0 of 3
GFTLNSYGID,LIYSDGRRTFYGDSVK,ARAAGTFDS,18 µM,2 of 3
GFTLNSYGIK,VMYSDPRRTFYGDSVK,GRAAGTFDS,no signal,0 of 3
GFTLNSYAIT,VIYSDGRRTFYGDSVK,GRAAGTQDS,no signal,0 of 3
GETLNSYGIA,VIYSDGRRYFYGDSVK,GRAAGTFDS,no signal,0 of 3
GFTLNSYGIL,VIYSHGRRTFYGDSVK,HRAAGTFDS,100 µM,3 of 3
GFTLNSYFIR,VIYSDGRRTFYGDSVK,GRLAGTFDS,3.4 µM,1 of 3
GFTLNSYGIH,VIYTDGRRTFYGDSVK,GRANGTFDS,4.5 µM,2 of 3
GFTLNSYGIG,VAYSDGRRTEYGDSVK,GRAAGTFDS,46 µM,1 of 3
GFTLNSYIIC,VIYSDGRRTIYGDSVK,GRAAGTFDS,3.4 µM,1 of 3
GFTLNSYGIL,VIYSDTRRMFYGDSVK,GRAAGTFDS,120 µM,2 of 3
GFTLNSYGIV,VIYSDGRRTFYFDSVK,GRAKGTFDS,no signal,0 of 3
GSTLNSIGIM,VIYSDGRRTFYGDSVK,GRAAGTFDS,no signal,0 of 3
GFTLNSYGQY,VIYSDGRRTFYGDSVK,GRAAGLFDS,4.1 µM,1 of 3
GFTLNSYGIV,VIYSDGRRTFYGDSVK,YRAAGTFDS,no signal,0 of 3
GFTLNSYLII,VIYSDGRRTFTGDSVK,GRAAGTFDS,440 nM,1 of 3
GFTLNWYMIR,VIYSDGRRTFYGDSVK,GRAAGTFDS,1.6 µM,1 of 3
GFTLNSYGIR,VIYSDGRRTFTGDSVK,GRAAGRFDS,no signal,0 of 3
GFTLNSYGIP,VIYSDGRRTFYGDEVE,GRAAGTFDS,no signal,0 of 3
GFTLNSGGIG,VIYSDGRRTFYGDSVK,GRAAGTFPS,no signal,0 of 3
GFTLNSSGIN,VIYSDGRRTFYGDSVK,ARAAGTFDS,14 µM,2 of 3
GFTLNTYGIK,VAYSDGRRTFYGDSVK,GRAAGTFDS,120 µM,2 of 3
GFTLNSYGIH,VIYSDGRRCFYGDSVK,GRAAGTFDS,31 nM,3 of 3
GFTLFSYGIQ,VIYSDGRRTPYGDSVK,GRAAGTFDS,no signal,0 of 3
GFTLNSYGID,VIYSDGRRTFYGPSVK,GRAAGTFDS,no signal,0 of 3
GFTLNSYGVD,VIYSDGRQTFYGDSVK,GRAAGTFDS,no signal,0 of 3
GFTLNSYGIC,VIYSKGRRTFLGDSVK,GRAAGTFDS,no signal,0 of 3
GFTLNSYGIQ,VIYSDGRRTFLGDSLK,GRAAGTFDS,no signal,0 of 3
GFTLNSYGIC,VIYSDGRRTFYGDSVK,SRAAGTFDS,no signal,0 of 3
GFTLNSYGII,VIYSDGRRTTYGDSVK,GEAAGTFDS,750 nM,1 of 3
GHTLNSYGIK,VIYSDGRRTFYGDSVK,GFAAGTFDS,no signal,0 of 3
GFTLNSYGIA,VIYSDGRRTFYGDSVK,GRAYGTCDS,93 µM,1 of 3
GFTLNSYGIG,VIYSDGRRTFYGDSVK,GRAGGTFYS,no signal,0 of 3
GFTLNSYGIL,VIYSDGRRTFYGDSVK,PRVAGTFDS,no signal,0 of 3
GFTLNRVGIE,VIYSDGRRTFYGDSVK,GRAAGTFDS,no signal,0 of 3
GFTLNSYGIT,VIYSCGRRTFYGDSVK,GRAAGTQDS,no signal,0 of 3
GFTLNSYGIR,VIYSDGRRTFYGDSVK,GRAAGTFDL,38 nM,1 of 3
GFTLNSYGII,IIYIDGRRTFYGDSVK,GRAAGTFDS,no signal,0 of 3
GFTLNSYGIG,VIYSDGRRTFYGDYVK,GRAAGTFWS,no signal,0 of 3
GFTWNSYGIF,TIYSDGRRTFYGDSVK,GRAAGTFDS,no signal,0 of 3
GFFLNSYGIW,VKYSDGRRTFYGDSVK,GRAAGTFDS,7.0 µM,2 of 3
GFTVNSYGIC,VIYSDGRVTFYGDSVK,GRAAGTFDS,no signal,0 of 3
QFTLNSYGII,VIYSDGRETFYGDSVK,GRAAGTFDS,12 µM,1 of 3
GFTLNSLGIA,VIYSDGRRTFYGDSVK,GRAAGTFDS,1.4 µM,1 of 3
GFTLNSYGIF,VIYSDGRRTFYGDSVK,GREPGTFDS,7.9 µM,1 of 3

For reference, the parent read 4.4 nM as the reference entry and 13 µM (one replicate of three) as a member of this library.
Three control strains display no target. For library AAYL49, 15% of the pairings with them gave a signal, with a median of 11 µM and one signal in twenty below 680 nM, so weak values seen in few replicates may be background.

Reference: Engelhart et al. 2022, doi:10.1038/s41597-022-01779-4. File: FLAb, binding data.